In ChEMBL document CHEMBL5252638, “Novel triphenylphosphonium amphiphilic conjugates of glycerolipid type: synthesis, cytotoxic and antibacterial activity, and targeted cancer cell delivery” (RSC Med Chem, 2023) one finds Ratio IC50 data, which are given here for one compound.

For the test, the species on record is Homo sapiens. In words: Selectivity index, ratio of IC50 for human Chang liver cells to IC50 for human A549 cells.

With `O=c1[nH]cc(F)c(=O)[nH]1` [FLUOROURACIL], the Ratio IC50 was 1.9.
